Earlier results in patent publication US12209143B2, “Versatile peptide and protein macrocyclization and multimerization with diels-alder cycloadditions” (The University of Chicago, priority 2019, dated 2025).

Conditions: in vivo; cited from earlier work

**Q.** Which circulating half-life does the source give for SCFGGRMDRIGAQSGLGCNSF [ANP-WT] here?
**A.** Its circulating half-life is < 5 min.
